Data as given in US9169254B2, “Spiroimidazolone derivative” (Chugai Seiyaku Kabushiki Kaisha, priority 2009, dated 2015).

Chains of the proteins cited; added tags and fusions are not shown. Residues count along the entry.
UniProt Q03431, 27-593 limits assumed: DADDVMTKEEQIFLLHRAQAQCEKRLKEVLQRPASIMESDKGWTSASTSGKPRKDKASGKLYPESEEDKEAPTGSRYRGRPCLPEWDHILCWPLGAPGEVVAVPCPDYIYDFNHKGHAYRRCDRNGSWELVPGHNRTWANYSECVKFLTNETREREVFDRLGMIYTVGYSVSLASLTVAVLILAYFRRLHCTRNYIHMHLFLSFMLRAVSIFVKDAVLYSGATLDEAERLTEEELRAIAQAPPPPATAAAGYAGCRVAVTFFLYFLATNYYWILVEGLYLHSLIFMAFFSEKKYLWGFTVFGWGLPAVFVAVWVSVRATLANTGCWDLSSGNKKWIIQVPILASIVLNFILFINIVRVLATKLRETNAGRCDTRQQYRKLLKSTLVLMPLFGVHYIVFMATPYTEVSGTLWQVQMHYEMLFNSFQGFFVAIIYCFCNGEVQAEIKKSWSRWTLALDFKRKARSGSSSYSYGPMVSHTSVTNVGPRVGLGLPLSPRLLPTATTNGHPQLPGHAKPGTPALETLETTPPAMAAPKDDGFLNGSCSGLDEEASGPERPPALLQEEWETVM

Target: human PTH1 receptor (Homo sapiens, UniProt Q03431)
Assay: In vitro cAMP signal activity in HKRK-B7 cells (LLC-PK1 cells overexpressing the human PTH1 receptor)
Type: cell-based
Conditions: compound at 1×10^−3 M, cAMP produced as percentage of that produced by hPTH(1-34) at 100 nM

`CC(=O)N(c1ccc(/C=C/S(=O)(=O)N2CCC3(CC2)N=C(c2cccc(OC(F)(F)F)c2)NC3=O)c(C)c1)C1CCNCC1` was tested, and the “cAMP production activity (%)” value was 24%.
